In this assay the target is Ribosomal protein S6 kinase alpha-3 (Homo sapiens, UniProt P51812). Nature of the assay: Ratio of SL0101 IC50 to compound IC50 for His-tagged RSK2.

The chains behind the UniProt entries cited, without tags or fusion partners.
UniProt P51812, whole entry: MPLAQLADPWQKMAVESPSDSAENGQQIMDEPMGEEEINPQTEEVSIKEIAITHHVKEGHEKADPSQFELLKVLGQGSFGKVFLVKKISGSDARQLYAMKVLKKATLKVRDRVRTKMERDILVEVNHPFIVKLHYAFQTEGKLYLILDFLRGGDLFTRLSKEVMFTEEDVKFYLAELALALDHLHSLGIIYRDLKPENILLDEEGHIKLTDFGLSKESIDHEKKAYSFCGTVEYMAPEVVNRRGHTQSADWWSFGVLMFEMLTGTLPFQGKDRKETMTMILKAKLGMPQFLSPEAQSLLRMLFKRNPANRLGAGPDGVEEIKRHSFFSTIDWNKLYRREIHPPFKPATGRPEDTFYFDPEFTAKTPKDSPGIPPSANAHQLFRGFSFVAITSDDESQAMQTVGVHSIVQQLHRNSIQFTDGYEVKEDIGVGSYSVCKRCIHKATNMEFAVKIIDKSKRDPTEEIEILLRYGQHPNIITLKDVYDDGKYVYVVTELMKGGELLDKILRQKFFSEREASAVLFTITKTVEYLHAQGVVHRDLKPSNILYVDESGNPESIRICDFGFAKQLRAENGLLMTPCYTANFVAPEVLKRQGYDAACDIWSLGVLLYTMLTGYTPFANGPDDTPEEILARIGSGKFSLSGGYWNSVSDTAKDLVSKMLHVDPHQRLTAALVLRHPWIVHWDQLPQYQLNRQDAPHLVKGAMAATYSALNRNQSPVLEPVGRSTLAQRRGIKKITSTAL

`CC(=O)CO[C@@H]1[C@@H](OCC(C)=O)[C@@H](O)[C@H](Oc2c(-c3ccc(O)cc3)oc3cc(O)cc(O)c3c2=O)O[C@H]1C`: the Ratio IC50 came to 2.

The values are drawn from ChEMBL document CHEMBL2016497, “Analogs of the RSK inhibitor SL0101: optimization of in vitro biological stability” (Bioorg Med Chem Lett, 2012).
